About 3,300 (0.97%) of roughly 340,000 compounds were called active. All entries are inconclusive by the source's own rule. Clear calls are listed elsewhere.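 How the source made its calls: active means maximum activity change below -70%; inconclusive means maximum activity change from -70% to -50%; inactive means maximum activity change above -50%.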
test system: Potassium voltage-gated channel subfamily H member 2, brain isoform KCNH2 3.1 (human); assay: qHTS for Inhibitors of KCHN2 3.1: Mutant qHTS; conditions: U2OS KCNH2 3.1, thallium flux FluxOr; active compounds read low
Description: Many antipsychotic drugs that inhibit the neurotransmitter dopamine also bind to hERG1 channel which might help explain their antipsychotic activity but also produces cardiac side effects. The discovery of the novel KCNH2 3.1 isoform offers a potential new target for the development of antipsychotic drugs without cardiac side effects. This proposal will use a high throughput thallium flux assay developed for KCNH2 to screen compounds that modulate the activity of KCNH2 3.1. The wild type KCNH2 channel will also be screened in parallel to help define the selective modulators of this KCNH2 3.1 potassium channel. The resulting compounds will be validated in electrophysiology experiments. The availability of animal models will allow future testing in vivo for effects on memory and other aspects of animal physiology linked with psychosis. NIH Chemical Genomics Center [NCGC] NIH Molecular Libraries Probe Centers Network [MLPCN] MLPCN Grant: MH096539 Assay Submitter (PI): James Barrow, Johns Hopkins University, Lieber Institute for Brain Development
U2OS cells were resuspended in cell media containing 10% fetal calf serum (FCS) at a concentration of 2 million cells / mL. The solution was treated with the mutant (3.1) virus at 1.77 x 10^8 / mL and allowed to incubate at room temperature in the dark. After 4 hours of incubation, DMEM + 10% fetal bovine serum (FBS) was added to the cell solution. Three microliter was then dispensed into a 1536 tissue culture treated black assay plates which were incubated overnight at 37 C. Two microliter of loading buffer (HBSS + HEPES + Red40 dye quencher + FluxOr dye) was added and the assay plates were incubated for 45 min at room temperature in the dark. […] A stimulation buffer was added to the plate and the second kinetic read (2 min) was obtained. The rate constant was calculated from the kinetic reads and normalized to the positive and negative DMSO controls.
On the % scale 0 is the no-effect control and ±100 the full control effect.

**Q.** How did the activity change turn out when CN(C(=O)Cc1ccc(Cl)c(Cl)c1)[C@@H]1CCCC[C@H]1N1CCCC1 was run?
**A.** Its activity change is inconclusive: -56.9%.

**Q.** Which activity change does the source give for O=[N+]([O-])c1cc([N+](=O)[O-])c(-c2ccn[nH]2)s1 here?
**A.** Its activity change is inconclusive: -63.4%.

**Q.** For CC(C)c1ccc(OP(=O)(Nc2ccccn2)Oc2ccccc2F)cc1 (centres undefined), which activity change is on record?
**A.** Its activity change is inconclusive: -66.3%.

**Q.** For CCN(/C(=N/P(=O)(N1CCOCC1)N1CCOCC1)N1CCOCC1)c1ccc(OC)cc1, which activity change is on record?
**A.** Its activity change is inconclusive: -61.1%.
